This assay concerns the target Orexin/Hypocretin receptor type 1 (Homo sapiens, UniProt O43613). The assay can be described thus: Antagonist activity at human OX1 receptor expressed in CHO cells assessed as inhibition of receptor-mediated calcium response by FLIPR. The format is functional, cell-based.

Protein sequences, listed by entry. Tags and fused reporters are not part of them.
UniProt O43613, whole entry: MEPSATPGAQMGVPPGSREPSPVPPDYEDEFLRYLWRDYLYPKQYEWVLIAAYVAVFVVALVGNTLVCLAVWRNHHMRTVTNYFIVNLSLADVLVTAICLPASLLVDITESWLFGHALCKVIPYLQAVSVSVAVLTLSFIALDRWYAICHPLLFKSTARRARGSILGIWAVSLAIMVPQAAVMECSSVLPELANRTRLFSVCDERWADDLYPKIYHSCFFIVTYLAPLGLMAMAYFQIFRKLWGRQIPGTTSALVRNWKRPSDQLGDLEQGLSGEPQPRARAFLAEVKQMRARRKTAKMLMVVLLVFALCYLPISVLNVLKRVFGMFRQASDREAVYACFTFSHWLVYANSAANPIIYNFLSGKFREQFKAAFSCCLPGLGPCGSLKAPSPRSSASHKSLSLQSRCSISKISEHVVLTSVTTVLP

2 molecules from ChEMBL document CHEMBL1140924, “Biomedical application of orexin/hypocretin receptor ligands in neuroscience” (J Med Chem, 2009) can be followed below.

By pKb is commonly meant the negative decadic logarithm of the Kb, by convention in mol/L. On to `Cc1cc2cc(NC(=O)Nc3ccnc4ccccc34)ccc2n1C`, for which the pKb is 7.3.

`COc1ccc(NC(=O)Nc2ccnc3ccccc23)cc1Cl`: the pKb is 7.4.
